Assay results published in US8987335B2, “Substituted (E)-N′-(1-phenylethylidene)benzohydrazide analogs as histone demethylase inhibitors” (University of Utah Research Foundation, priority 2011, dated 2015).

How the values were obtained:
Type in all cases: cell-based
[1] = test system: T-47D cells; assay: Cell Viability Assay (ATPlite), T-47D; settings: Homo sapiens, T47D, 96-hours of incubation, read-out: Cell Growth, IC50
[2] = test system: MDA-MB-231; assay: Cell Viability Assay (ATPlite), MDA-MB-231; settings: Homo sapiens, 96-hours of incubation, read-out: Cell Growth, IC50
Protocol: (§1) Cancer cell lines were obtained from ATCC. Cells were cultured according to the procedures provided. In addition to the supplements indicated in Table 4, media were also supplemented with 1% penicillin/streptomycin (100 IU/mL penicillin and 100 μg/mL streptomycin). Cells were cultured at 37° C. and 5% CO2. ATCC is the American Type Culture Collection (Manassas, Va.).
(§2) Cell viability was determined using ATPlite™ Luminescence Assay System (PerkinElmer Inc., Waltham, Mass.) using the various cell-lines described above and in Table 4. Briefly, cells were seeded in 96-well plates and then treated with different concentrations of inhibitor (0.1% final DMSO concentration). After 96-hours of incubation, ATPlite detection reagent was added directly to the culture well. Luminescence was read 5 minutes later on an Envision microplate reader.

[3] = test system: PC-3; assay: Cell Viability Assay (ATPlite), PC-3; settings: Homo sapiens, 96-hours of incubation, read-out: Cell Growth, IC50
Protocol: as §1, §2

`O=C(N/N=C/c1ccccc1O)c1ccc(O)cc1` [Compound 1] showed an IC50 [1] of 2700 nM.
`O=C(N/N=C/c1cc(Cl)ccc1O)c1ccc(O)cc1` [Compound 2] gave an IC50 [1] of 821 nM.
Work on `C/C(=N\NC(=O)c1ccc(O)cc1)c1ccccc1O` [Compound 3] yielded an IC50 [1] of 971 nM.
In the case of `O=C(N/N=C/c1ccccc1O)c1ccc(Br)cc1` [Compound 4], the IC50 [1] is reported as 96 nM.
`O=C(N/N=C/c1ccccc1O)c1cccc(Cl)c1` [Compound 5] was tested, and the IC50 [1] was 615 nM.
Work on `C/C(=N\NC(=O)c1cccc(S(=O)(=O)N2CCOCC2)c1)c1cc(Cl)ccc1O` [Compound 12, (E)-N′-(1-(5-chloro-2-hydroxyphenyl)ethylidene)-3-(morpholinosulfonyl)benzohydrazide] yielded an IC50 [2] of 1040 nM and an IC50 [3] of 2160 nM.
